Test results: patent EP0255343A2, “L-aspartylfenchylamino alcohol derivatives” (priority 1986, dated 1988)

Conditions: colorless and odorless powder

| Substance | solubility in water |
| --- | --- |
| 3-N-(L-aspartyl)amino-1-fenchyl-2-butanol [Compound A] | readily soluble in water |
| 3-N-(L-aspartyl)amino-4-fenchyl-2-butanol [Compound B] | readily soluble in water |
